Reference: patent US20100190150A1, “Biomarkers and methods for determining sensitivity to epidermal growth factor receptor modulators” (BRISTOL-MYERS SQUIBB COMPANY, priority 2004, published 2010)

What was measured:
[1] = system: Geo colon cancer xenograft; assay: In vivo antitumor testing, colon cancer xenograft model; settings: Geo sc xenograft in nude mice; 1 mg/mouse q3d X 10, 14, ip
Experimental: (§1) Tumors were propagated in nude mice as subcutaneous (sc) transplants using tumor fragments obtained from donor mice. Tumor passage occurred approximately every two to four weeks. Tumors were then allowed to grow to the pre-determined size window (usually between 100-200 mg, tumors outside the range were excluded) and animals were evenly distributed to various treatment and control groups. Animals were treated with C225 (1 mg/mouse q3d X 10, 14, ip). Treated animals were checked daily for treatment related toxicity/mortality. Each group of animals was weighed before the initiation of treatment (Wt1) and then again following the last treatment dose (Wt2). The difference in body weight (Wt2-Wt1) provided a measure of treatment-related toxicity. Tumor response was determined by measurement of tumors with a caliper twice a week, until the tumors reached a predetermined target size of 1 gm or became necrotic. […]
(§2) Antitumor activity was determined in terms of primary tumor growth inhibition. This was determined in two ways: (i) calculating the relative median tumor weight (MTW) of treated (T) and control (C) mice at various time points (effects were expressed as % T/C); and (ii) calculating the tumor growth delay (T-C value), defined as the difference in time (days) required for the treated tumors (T) to reach a predetermined target size compared to those of the control group (C). […]

[2] = system: HT29 colon cancer xenograft; assay: as above; settings: HT29 sc xenograft in nude mice; 1 mg/mouse q3d X 10, 14, ip
Experimental: as §1, §2

## cetuximab
[1]
  efficacy in colon cancer xenograft model (sensitive or resistant): sensitive
[2]
  efficacy in colon cancer xenograft model (sensitive or resistant): resistant
